Measurements reported in publication PMC4778717 (ChemMedChem, 2015).

Amino acid sequences for entries named in this document (tags omitted). Residues count along the entry.
UniProt P10408, 1-610: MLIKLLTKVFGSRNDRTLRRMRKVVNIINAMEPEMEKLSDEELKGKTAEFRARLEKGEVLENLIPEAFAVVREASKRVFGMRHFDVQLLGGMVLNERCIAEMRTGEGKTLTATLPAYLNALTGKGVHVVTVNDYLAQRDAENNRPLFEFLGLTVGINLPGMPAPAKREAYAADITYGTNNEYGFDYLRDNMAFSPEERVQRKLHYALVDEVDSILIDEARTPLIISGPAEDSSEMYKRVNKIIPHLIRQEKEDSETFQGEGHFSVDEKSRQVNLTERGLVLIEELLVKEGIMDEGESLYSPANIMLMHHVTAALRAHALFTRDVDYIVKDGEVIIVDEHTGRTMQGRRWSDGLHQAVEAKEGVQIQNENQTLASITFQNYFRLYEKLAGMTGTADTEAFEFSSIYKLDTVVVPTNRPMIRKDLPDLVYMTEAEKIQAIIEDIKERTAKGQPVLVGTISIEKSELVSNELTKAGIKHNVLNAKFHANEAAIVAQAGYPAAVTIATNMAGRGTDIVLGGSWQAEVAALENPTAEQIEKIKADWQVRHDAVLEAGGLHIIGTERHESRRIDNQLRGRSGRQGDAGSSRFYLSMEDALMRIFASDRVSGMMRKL

Biological target: EcSecAN68 (Escherichia coli, UniProt P10408)
Experiment: biochemical
Design: species or system E. coli

## CSc1nc(C)cc(Sc2nnc(-c3cc(C(F)(F)F)cc(C(F)(F)F)c3)[nH]2)n1 [Compound 7a, 4-((5-(3,5-Bis(trifluoromethyl)phenyl)-4H-1,2,4-triazol-3-yl)thio)-6-methyl-2-(methylthio) pyrimidine]
  IC50: 25 µM
